Measurements as given in patent US10918714B2, “Human iNKT cell activation using glycolipids with altered glycosyl groups” (Academia Sinica, priority 2013, dated 2021).

Chains of the proteins cited; added tags and fusions are not shown. Residues count along the entry.
UniProt A0A0B4J1J9, 22-114 limits assumed: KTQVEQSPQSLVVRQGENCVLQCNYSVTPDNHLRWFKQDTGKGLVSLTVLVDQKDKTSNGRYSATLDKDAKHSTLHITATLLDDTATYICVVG
UniProt P11609, 19-305 limits assumed: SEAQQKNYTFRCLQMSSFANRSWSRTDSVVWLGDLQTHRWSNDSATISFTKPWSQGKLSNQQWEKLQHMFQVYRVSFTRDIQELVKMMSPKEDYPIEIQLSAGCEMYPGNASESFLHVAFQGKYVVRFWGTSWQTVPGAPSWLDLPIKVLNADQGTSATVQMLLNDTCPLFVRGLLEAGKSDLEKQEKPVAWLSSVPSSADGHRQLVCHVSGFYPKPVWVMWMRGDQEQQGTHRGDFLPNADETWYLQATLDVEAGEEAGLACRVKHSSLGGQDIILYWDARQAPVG
UniProt P11609, 22-305 limits assumed: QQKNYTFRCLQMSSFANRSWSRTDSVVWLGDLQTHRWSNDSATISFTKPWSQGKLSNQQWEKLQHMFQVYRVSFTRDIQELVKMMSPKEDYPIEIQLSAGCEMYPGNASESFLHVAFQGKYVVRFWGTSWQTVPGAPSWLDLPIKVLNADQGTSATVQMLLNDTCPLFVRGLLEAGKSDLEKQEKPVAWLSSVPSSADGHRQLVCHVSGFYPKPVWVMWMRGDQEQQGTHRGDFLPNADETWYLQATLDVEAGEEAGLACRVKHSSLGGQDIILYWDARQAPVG
UniProt P01887, 21-119 partner limits assumed: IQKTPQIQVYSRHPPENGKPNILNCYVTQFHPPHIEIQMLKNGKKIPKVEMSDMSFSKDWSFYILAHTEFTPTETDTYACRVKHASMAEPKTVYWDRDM

Columns and labels:
[1] = test system: Jα18 KO mouse splenocytes; assay: FACS analyses of Jα18 KO mouse immune cells (splenocytes) after glycolipid stimulation; conditions: Jα18 KO mice, 3 days after i.v. injection, 1 μg/mouse
Description: B6 WT or Jα18 KO mice treated with specific glycolipid (1 μg/mouse) or vehicle (1% DMSO in PBS) were sacrificed at 72 hr post-injection and their spleens were harvested. After pressing spleens through 70 um strainer and lysis of erythrocytes, the nucleated cells were resuspended in PBS buffer containing azide (0.05%) and stained with antibodies recognizing the indicated cell surface antigens for 30 min at 4° C. After washing, the splenocytes were subjected to FACS analysis. The antibodies against CD3, CD4, CD8β, CD11c, CD80, and CD86 were obtained from BD Bioscience-Pharmingen.

mouse iNKT TCR = mouse iNKT TCR (Mus musculus, UniProt A0A0B4J1J9+P11609); assay: Binding avidity of mCD1d-loaded glycolipids to Vα14+ iNKT cells (ternary interaction); conditions: mCD1d complex (FIG. 3C)
Description: Briefly, murine CD1d:Ig dimer (BD Biosciences PharMingen, San Diego, Calif.) was loaded with glycolipids at a molar ratio of 1:10 or vehicle for overnight at 37° C. Murine 1.2 Vα14^+ iNKT cells were incubated with various doses of dimer-glycolipid complex in buffer containing azide (0.05%) for 30 min at 4° C. These cells were then stained with anti-mouse IgG1-PE mAb (A85-1) for another 30 min at 4° C., followed by washing, fixation with 4% paraformaldehyde (PFA), and the bound mCD1d dimer complexes were detected by flow cytometry. The binding curve and linear fit of the Scatchard transformation were plotted by Graphpad Prism software.

B6 wild type mice = conditions: previously reported (ref 19); cited from earlier work
Jα18 knockout mice = assay: Murine serum cytokine/chemokine secretion after i.v. glycolipid, Jα18 knockout mice; conditions: Jα18 KO mice, 1 μg/mouse
Description: All the glycolipids were dissolved in 100% DMSO at a concentration of 1-2 mg/ml. For in vivo experiments, all compounds were diluted to 10 μg/ml in saline just before injection of 100 μl diluted glycolipid or 100 μl 1% DMSO into mice. Pathogen-free C57BL/6 female mice aged 6-12 weeks were obtained from the National Laboratory Animal Center (Taipei, Taiwan). Jα18 knockout (KO) B6 mice were the gifts from Dr. Masaru Taniguchi (RIKEN Research Center for Allergy and Immunology, Yokohama, Japan). All the mice were maintained in pathogen free vivarium of Institute of Cellular and Organismic Biology, Academia Sinica (Taipei, Taiwan).
B6 WT or Jα18 KO mice were intravenously injected with vehicle or glycolipids at 0.1 or 1 μg/mouse. Serum was collected at 2 and 18 h after injection for measurement of cytokines/chemokines by Beadlyte® Mouse Cytokine kit (Millipore, N.Y.) and read by a Luminex® 200™ system (Luminex, Austin, Tex.).

mCD1d dimer = mCD1d dimer (Mus musculus, UniProt P11609); assay: Binding strength of the binary complex between mCD1d and glycolipid (L363 antibody ELISA); conditions: KD from Scatchard transformation (FIG. 10D)
Description: Different concentrations of mCD1d^di-glycolipid complexes coated on the ELISA plate were incubated with the saturated amounts of L363 antibody (BioLegend) conjugated with biotin, followed by streptavidin-HRP detection and ELISA measurement. The KD between L363 antibody and the indicated mCD1d^di-glycolipid complex was calculated from the linear regression of the Scatchard transformation of the L363 antibody binding curve using GraphPad Prism software. […] Next, the KD of the binary complex was determined as follows. Different concentrations of glycolipids were incubated with fixed amounts of mCD1d dimer at 37° C. overnight, and then mCD1d^di-glycolipid complexes were coated on the 96 well ELISA plate at 4° C. overnight. After washing and blocking with BSA at room temperature (RT) for 1 hr, L363 antibody conjugated with biotin was added for 30 min at RT, followed by incubation with streptavidin-HRP for 30 min at RT and detection with an ELSIA reader. KD values of the binary complex were calculated from the linear regression of the Scatchard transformation of the L363 antibody binding curve.

## CCCCCCCCCCCCCC[C@@H](O)[C@@H](O)[C@H](CO[C@H]1O[C@H](CO)[C@H](O)[C@H](O)[C@H]1O)NC(=O)CCCCCCCCCCc1ccc(F)cc1
[1]
  CD11chi monocyte-derived DCs expansion and activation: not
  total splenocytes, CD4+ T and CD8+ T cells: No significant differences
Mouse iNKT TCR
  ternary interaction with iNKT TCR relative to mCD1d-7DW8-5-Glc complex: 10 fold
B6 wild type mice
  dosage sufficient for immune stimulation: 0.1 μg/mouse
Jα18 knockout mice
  secretion of chemokines including KC, MCP-1, IP-10 and MIG: not
Jα18 knockout mice; sera 2 and 18 hr after injection
  induction of cytokines: no induction of cytokines
mCD1d dimer
  binding avidity to mCD1d dimer relative to αGalCer: 20 fold
